Earlier results, collected in publication PMC3721222.

Target: Trypsin (Bos taurus) (UniProt P00760)

Kd: 6.57 nM
Substance: BPTI (from UniProt P00974)
